The nature of the data set: Pharmacokinetic and drug–drug interaction study in rats (plasma, UPLC–MS/MS). The note with it: Sprague Dawley, rat, po, 100 mg/kg, sorafenib in rat plasma, sorafenib 100 mg/kg oral co-administered with canagliflozin 10 mg/kg (IVSOR+CA), n = 6, median (range).

The term Tmax denotes the time from dosing to the highest level. On to `CNC(=O)c1cc(Oc2ccc(NC(=O)Nc3ccc(Cl)c(C(F)(F)F)c3)cc2)ccn1` [sorafenib, Sorafenib], for which the Tmax was 6.5 h.

(Values after PMC9457773 (Molecules, 2022).)
